ChEMBL document CHEMBL2439983, “The discovery and optimization of novel dual inhibitors of topoisomerase II and histone deacetylase” (Bioorg Med Chem, 2013)

The chains behind the UniProt entries cited, without tags or fusion partners. Where a name states a change or a piece, a line headed by the entry shows the natural chain unless it says otherwise.
UniProt Q13547, whole entry: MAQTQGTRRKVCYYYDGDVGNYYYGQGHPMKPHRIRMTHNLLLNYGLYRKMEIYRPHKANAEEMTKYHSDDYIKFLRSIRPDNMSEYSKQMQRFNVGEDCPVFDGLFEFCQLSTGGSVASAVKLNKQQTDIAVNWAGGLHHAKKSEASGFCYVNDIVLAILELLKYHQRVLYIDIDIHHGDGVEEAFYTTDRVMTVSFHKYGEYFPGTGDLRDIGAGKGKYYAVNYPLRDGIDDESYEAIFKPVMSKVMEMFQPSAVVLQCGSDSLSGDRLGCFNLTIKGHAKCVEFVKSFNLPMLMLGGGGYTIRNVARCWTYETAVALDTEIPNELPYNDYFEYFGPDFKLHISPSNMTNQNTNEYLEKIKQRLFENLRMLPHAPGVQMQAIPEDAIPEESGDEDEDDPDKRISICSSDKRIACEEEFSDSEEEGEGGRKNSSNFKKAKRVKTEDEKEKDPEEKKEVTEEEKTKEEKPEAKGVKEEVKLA
UniProt O15379: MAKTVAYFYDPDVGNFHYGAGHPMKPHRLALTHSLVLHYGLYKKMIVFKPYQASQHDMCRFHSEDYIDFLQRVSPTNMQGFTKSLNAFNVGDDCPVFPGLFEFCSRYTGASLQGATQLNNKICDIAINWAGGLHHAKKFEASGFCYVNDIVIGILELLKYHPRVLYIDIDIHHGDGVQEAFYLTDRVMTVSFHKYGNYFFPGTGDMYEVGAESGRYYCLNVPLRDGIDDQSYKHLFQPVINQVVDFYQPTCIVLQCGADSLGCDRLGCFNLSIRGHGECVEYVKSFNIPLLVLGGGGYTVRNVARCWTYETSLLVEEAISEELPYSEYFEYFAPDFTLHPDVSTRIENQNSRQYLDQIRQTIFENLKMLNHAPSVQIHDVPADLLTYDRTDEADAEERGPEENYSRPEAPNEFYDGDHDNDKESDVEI

What was measured:
[1] = molecular target: T1, Protein deacetylase HDAC6 (Homo sapiens) (UniProt Q9UBN7); experiment: Potency index, ratio of vorinostat IC50 to compound IC50 for human recombinant HDAC6
T1 sequence (whole entry): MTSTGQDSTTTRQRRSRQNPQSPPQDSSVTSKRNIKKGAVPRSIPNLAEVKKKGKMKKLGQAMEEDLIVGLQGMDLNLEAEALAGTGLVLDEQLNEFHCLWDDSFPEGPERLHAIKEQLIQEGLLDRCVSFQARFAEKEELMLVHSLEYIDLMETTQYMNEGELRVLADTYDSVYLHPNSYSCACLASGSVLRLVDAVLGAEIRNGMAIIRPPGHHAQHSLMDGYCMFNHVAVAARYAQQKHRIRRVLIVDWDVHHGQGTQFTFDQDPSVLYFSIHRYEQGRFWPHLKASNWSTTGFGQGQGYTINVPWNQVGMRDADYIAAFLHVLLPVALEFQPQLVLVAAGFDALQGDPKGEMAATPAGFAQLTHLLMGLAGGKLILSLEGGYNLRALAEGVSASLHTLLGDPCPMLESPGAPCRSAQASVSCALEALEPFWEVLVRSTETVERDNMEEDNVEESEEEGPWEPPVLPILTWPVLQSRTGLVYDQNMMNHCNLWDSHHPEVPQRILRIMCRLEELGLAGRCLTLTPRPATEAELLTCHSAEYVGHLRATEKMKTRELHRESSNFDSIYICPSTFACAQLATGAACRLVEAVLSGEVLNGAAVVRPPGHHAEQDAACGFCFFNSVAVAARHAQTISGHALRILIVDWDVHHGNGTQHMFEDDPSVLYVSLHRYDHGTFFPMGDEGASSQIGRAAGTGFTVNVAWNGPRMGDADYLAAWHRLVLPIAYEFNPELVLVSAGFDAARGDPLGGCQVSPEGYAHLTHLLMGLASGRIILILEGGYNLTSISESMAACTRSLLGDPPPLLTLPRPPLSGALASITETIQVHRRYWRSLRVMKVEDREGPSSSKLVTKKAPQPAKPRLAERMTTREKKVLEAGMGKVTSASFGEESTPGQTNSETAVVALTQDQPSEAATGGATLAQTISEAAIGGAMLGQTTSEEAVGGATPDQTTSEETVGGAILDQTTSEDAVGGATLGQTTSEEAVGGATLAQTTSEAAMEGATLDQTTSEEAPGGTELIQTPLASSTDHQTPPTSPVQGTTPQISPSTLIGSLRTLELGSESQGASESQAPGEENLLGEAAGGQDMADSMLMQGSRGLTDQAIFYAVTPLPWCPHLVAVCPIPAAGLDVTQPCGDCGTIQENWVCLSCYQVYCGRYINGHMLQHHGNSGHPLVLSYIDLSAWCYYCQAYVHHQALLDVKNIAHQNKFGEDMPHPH

[2] = molecular target: Histone deacetylase 1 (Homo sapiens, UniProt Q13547); experiment: Potency index, ratio of vorinostat IC50 to compound IC50 for human recombinant HDAC1
[3] = molecular target: Histone deacetylase 3 (Homo sapiens, UniProt O15379); experiment: Potency index, ratio of vorinostat IC50 to compound IC50 for human recombinant HDAC3

Ratio IC50 [1]: 10
Ratio IC50 [2]: 10
Ratio IC50 [3]: 10
Structure (SMILES): COc1cc([C@@H]2c3cc4c(cc3[C@@H](Nc3cccc(OCCCCCCC(=O)NO)c3)[C@H]3COC(=O)[C@H]23)OCO4)cc(OC)c1O
